{"sequences": {"note": "Amino acid sequences for entries named in this document (tags omitted).", "UniProt Q86WV6, whole entry H232R": "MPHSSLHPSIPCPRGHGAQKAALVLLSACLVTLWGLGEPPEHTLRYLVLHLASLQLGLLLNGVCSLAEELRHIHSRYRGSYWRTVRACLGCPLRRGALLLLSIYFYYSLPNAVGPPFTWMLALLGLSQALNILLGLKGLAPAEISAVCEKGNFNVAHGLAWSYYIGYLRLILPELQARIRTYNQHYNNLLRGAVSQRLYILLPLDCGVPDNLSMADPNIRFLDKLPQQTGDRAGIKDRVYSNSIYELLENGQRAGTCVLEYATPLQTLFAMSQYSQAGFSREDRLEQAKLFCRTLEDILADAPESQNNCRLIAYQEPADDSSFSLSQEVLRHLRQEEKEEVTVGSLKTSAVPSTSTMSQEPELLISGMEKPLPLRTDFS"}, "source": "patent US12318403B2", "about": "“2′3′-cyclic dinucleotides and prodrugs thereof” (INSTITUTE OF ORGANIC CHEMISTRY AND BIOCHEMISTRY ASCR, V.V.I., priority 2019, dated 2025)", "target": "human wild type STING (WT STING) (Homo sapiens, UniProt Q86WV6, H232R)", "assay": "293T WT STING standard reporter assay", "assay_type": "cell-based", "settings": "293T WT STING EC50, 293T wtSTING-FL cells; standard reporter assay without digitonin; 7 hours; ISRE firefly luciferase"}
{"smiles": "CCCCCC(=O)Oc1ccc(CSP2(=O)OC[C@H]3O[C@@H](n4cnc5c(N)ncnc54)[C@H](F)[C@@H]3OCP(=O)(O)OC[C@H]3O[C@@H](n4cnc5c(=O)[nH]c(N)nc54)[C@H](O2)[C@@H]3F)cc1", "note": "(single isomer, unassigned) [Compound 31a]", "values": [{"measurement": "EC50", "result": 270, "unit": "nM"}]}
{"smiles": "CCCCCC(=O)Oc1ccc(CSP2(=O)OC[C@H]3O[C@@H](n4cnc5c(N)ncnc54)[C@H](F)[C@@H]3OCP(=O)(O)OC[C@H]3O[C@@H](n4cnc5c(=O)[nH]c(N)nc54)[C@H](O2)[C@@H]3F)cc1", "note": "(single isomer, unassigned) [Compound 31b]", "values": [{"measurement": "EC50", "result": 40, "unit": "nM"}]}
{"smiles": "CC(C)(C)C(=O)OCSP1(=O)OC[C@H]2O[C@@H](n3cnc4c(N)ncnc43)[C@H](F)[C@@H]2OCP(=O)(O)OC[C@H]2O[C@@H](n3cnc4c(=O)[nH]c(N)nc43)[C@H](O1)[C@@H]2F", "note": "(single isomer, unassigned) [Compound 32a]", "values": [{"measurement": "EC50", "result": 3800, "unit": "nM"}]}
{"smiles": "CC(C)(C)C(=O)OCSP1(=O)OC[C@H]2O[C@@H](n3cnc4c(N)ncnc43)[C@H](F)[C@@H]2OCP(=O)(O)OC[C@H]2O[C@@H](n3cnc4c(=O)[nH]c(N)nc43)[C@H](O1)[C@@H]2F", "note": "(single isomer, unassigned) [Compound 32b]", "values": [{"measurement": "EC50", "result": 600, "unit": "nM"}]}
{"smiles": "CC(C)OC(=O)OCSP1(=O)OC[C@H]2O[C@@H](n3cnc4c(N)ncnc43)[C@H](F)[C@@H]2OCP(=O)(O)OC[C@H]2O[C@@H](n3cnc4c(=O)[nH]c(N)nc43)[C@H](O1)[C@@H]2F", "note": "(single isomer, unassigned) [Compound 33a]", "values": [{"measurement": "EC50", "result": 14700, "unit": "nM"}]}
{"smiles": "CC(C)OC(=O)OCSP1(=O)OC[C@H]2O[C@@H](n3cnc4c(N)ncnc43)[C@H](F)[C@@H]2OCP(=O)(O)OC[C@H]2O[C@@H](n3cnc4c(=O)[nH]c(N)nc43)[C@H](O1)[C@@H]2F", "note": "(single isomer, unassigned) [Compound 33b]", "values": [{"measurement": "EC50", "result": 1400, "unit": "nM"}]}
{"smiles": "CCCCCCCC(=O)Oc1ccc(CSP2(=O)OC[C@H]3O[C@@H](n4cnc5c(N)ncnc54)[C@H](F)[C@@H]3OCP(=O)(O)OC[C@H]3O[C@@H](n4cnc5c(=O)[nH]c(N)nc54)[C@H](O2)[C@@H]3F)cc1", "note": "(single isomer, unassigned) [Compound 34a]", "values": [{"measurement": "EC50", "result": 170, "unit": "nM"}]}
{"smiles": "CCCCCCCC(=O)Oc1ccc(CSP2(=O)OC[C@H]3O[C@@H](n4cnc5c(N)ncnc54)[C@H](F)[C@@H]3OCP(=O)(O)OC[C@H]3O[C@@H](n4cnc5c(=O)[nH]c(N)nc54)[C@H](O2)[C@@H]3F)cc1", "note": "(single isomer, unassigned) [Compound 34b]", "values": [{"measurement": "EC50", "result": 350, "unit": "nM"}]}
{"smiles": "CCCCCCCCCC(=O)Oc1ccc(CSP2(=O)OC[C@H]3O[C@@H](n4cnc5c(N)ncnc54)[C@H](F)[C@@H]3OCP(=O)(O)OC[C@H]3O[C@@H](n4cnc5c(=O)[nH]c(N)nc54)[C@H](O2)[C@@H]3F)cc1", "note": "(single isomer, unassigned) [Compound 35a]", "values": [{"measurement": "EC50", "result": 30, "unit": "nM"}]}
{"smiles": "CCCCCCCCCC(=O)Oc1ccc(CSP2(=O)OC[C@H]3O[C@@H](n4cnc5c(N)ncnc54)[C@H](F)[C@@H]3OCP(=O)(O)OC[C@H]3O[C@@H](n4cnc5c(=O)[nH]c(N)nc54)[C@H](O2)[C@@H]3F)cc1", "note": "(single isomer, unassigned) [Compound 35b]", "values": [{"measurement": "EC50", "result": 80, "unit": "nM"}]}
{"smiles": "CCCC(=O)Oc1ccc(CSP2(=O)OC[C@H]3O[C@@H](n4cnc5c(N)ncnc54)[C@H](F)[C@@H]3OCP(=O)(O)OC[C@H]3O[C@@H](n4cnc5c(=O)[nH]c(N)nc54)[C@H](O2)[C@@H]3F)cc1", "note": "(single isomer, unassigned) [Compound 36a]", "values": [{"measurement": "EC50", "result": 450, "unit": "nM"}]}
{"smiles": "CCCC(=O)Oc1ccc(CSP2(=O)OC[C@H]3O[C@@H](n4cnc5c(N)ncnc54)[C@H](F)[C@@H]3OCP(=O)(O)OC[C@H]3O[C@@H](n4cnc5c(=O)[nH]c(N)nc54)[C@H](O2)[C@@H]3F)cc1", "note": "(single isomer, unassigned) [Compound 36b]", "values": [{"measurement": "EC50", "result": 160, "unit": "nM"}]}
{"smiles": "CC(C)(C)C(=O)Oc1ccc(CSP2(=O)OC[C@H]3O[C@@H](n4cnc5c(N)ncnc54)[C@H](F)[C@@H]3OCP(=O)(O)OC[C@H]3O[C@@H](n4cnc5c(=O)[nH]c(N)nc54)[C@H](O2)[C@@H]3F)cc1", "note": "(single isomer, unassigned) [Compound 37a]", "values": [{"measurement": "EC50", "result": 600, "unit": "nM"}]}
{"smiles": "CC(C)(C)C(=O)Oc1ccc(CSP2(=O)OC[C@H]3O[C@@H](n4cnc5c(N)ncnc54)[C@H](F)[C@@H]3OCP(=O)(O)OC[C@H]3O[C@@H](n4cnc5c(=O)[nH]c(N)nc54)[C@H](O2)[C@@H]3F)cc1", "note": "(single isomer, unassigned) [Compound 37b]", "values": [{"measurement": "EC50", "result": 90, "unit": "nM"}]}
{"smiles": "CCCCCCCCCCCC(=O)Oc1ccc(CSP2(=O)OC[C@H]3O[C@@H](n4cnc5c(N)ncnc54)[C@H](F)[C@@H]3OCP(=O)(O)OC[C@H]3O[C@@H](n4cnc5c(=O)[nH]c(N)nc54)[C@H](O2)[C@@H]3F)cc1", "note": "(single isomer, unassigned) [Compound 38a]", "values": [{"measurement": "EC50", "result": 10, "unit": "nM"}]}
{"smiles": "CCCCCCCCCCCC(=O)Oc1ccc(CSP2(=O)OC[C@H]3O[C@@H](n4cnc5c(N)ncnc54)[C@H](F)[C@@H]3OCP(=O)(O)OC[C@H]3O[C@@H](n4cnc5c(=O)[nH]c(N)nc54)[C@H](O2)[C@@H]3F)cc1", "note": "(single isomer, unassigned) [Compound 38b]", "values": [{"measurement": "EC50", "result": 40, "unit": "nM"}]}
{"smiles": "CC(C)(C)C(=O)OCOc1ccc(CSP2(=O)OC[C@H]3O[C@@H](n4cnc5c(N)ncnc54)[C@H](F)[C@@H]3OCP(=O)(O)OC[C@H]3O[C@@H](n4cnc5c(=O)[nH]c(N)nc54)[C@H](O2)[C@@H]3F)cc1", "note": "(single isomer, unassigned) [Compound 39a]", "values": [{"measurement": "EC50", "result": 170, "unit": "nM"}]}
{"smiles": "CC(C)(C)C(=O)OCOc1ccc(CSP2(=O)OC[C@H]3O[C@@H](n4cnc5c(N)ncnc54)[C@H](F)[C@@H]3OCP(=O)(O)OC[C@H]3O[C@@H](n4cnc5c(=O)[nH]c(N)nc54)[C@H](O2)[C@@H]3F)cc1", "note": "(single isomer, unassigned) [Compound 39b]", "values": [{"measurement": "EC50", "result": 40, "unit": "nM"}]}
{"smiles": "CCCCCC(=O)Oc1ccc(C(=O)Oc2ccc(CSP3(=O)OC[C@H]4O[C@@H](n5cnc6c(N)ncnc65)[C@H](F)[C@@H]4OCP(=O)(O)OC[C@H]4O[C@@H](n5cnc6c(=O)[nH]c(N)nc65)[C@H](O3)[C@@H]4F)cc2)cc1", "note": "(single isomer, unassigned) [Compound 40a]", "values": [{"measurement": "EC50", "result": 10000, "unit": "nM"}]}
{"smiles": "CCCCCC(=O)Oc1ccc(C(=O)Oc2ccc(CSP3(=O)OC[C@H]4O[C@@H](n5cnc6c(N)ncnc65)[C@H](F)[C@@H]4OCP(=O)(O)OC[C@H]4O[C@@H](n5cnc6c(=O)[nH]c(N)nc65)[C@H](O3)[C@@H]4F)cc2)cc1", "note": "(single isomer, unassigned) [Compound 40b]", "values": [{"measurement": "EC50", "result": 10, "unit": "nM"}]}
{"smiles": "CC(C)(C)C(=O)OCSP1(=O)OC[C@H]2O[C@@H](n3cnc4c(N)ncnc43)[C@H](F)[C@@H]2OCP(=O)(O)OC[C@H]2O[C@@H](n3cnc4c(=O)[nH]cnc43)[C@H](O1)[C@@H]2F", "note": "(single isomer, unassigned) [Compound 50a]", "values": [{"measurement": "EC50", "result": 1900, "unit": "nM"}]}
{"smiles": "CC(C)(C)C(=O)OCSP1(=O)OC[C@H]2O[C@@H](n3cnc4c(N)ncnc43)[C@H](F)[C@@H]2OCP(=O)(O)OC[C@H]2O[C@@H](n3cnc4c(=O)[nH]cnc43)[C@H](O1)[C@@H]2F", "note": "(single isomer, unassigned) [Compound 50b]", "values": [{"measurement": "EC50", "result": 900, "unit": "nM"}]}
{"smiles": "CC(C)(C)C(=O)OCOc1ccc(CSP2(=O)OC[C@H]3O[C@@H](n4cnc5c(N)ncnc54)[C@H](F)[C@@H]3OCP(=O)(O)OC[C@H]3O[C@@H](n4cnc5c(=O)[nH]cnc54)[C@H](O2)[C@@H]3F)cc1", "note": "(single isomer, unassigned) [Compound 51a]", "values": [{"measurement": "EC50", "result": 1600, "unit": "nM"}]}
{"smiles": "CC(C)(C)C(=O)OCOc1ccc(CSP2(=O)OC[C@H]3O[C@@H](n4cnc5c(N)ncnc54)[C@H](F)[C@@H]3OCP(=O)(O)OC[C@H]3O[C@@H](n4cnc5c(=O)[nH]cnc54)[C@H](O2)[C@@H]3F)cc1", "note": "(single isomer, unassigned) [Compound 51b]", "values": [{"measurement": "EC50", "result": 100, "unit": "nM"}]}
{"smiles": "CCCCCCCCCCCC(=O)OCSP1(=O)OC[C@H]2O[C@@H](n3cnc4c(N)ncnc43)[C@H](F)[C@@H]2OCP(=O)(O)OC[C@H]2O[C@@H](n3cnc4c(=O)[nH]cnc43)[C@H](O1)[C@@H]2F", "note": "(single isomer, unassigned) [Compound 56a]", "values": [{"measurement": "EC50", "result": 60, "unit": "nM"}]}
{"smiles": "CCCCCCCCCCCC(=O)OCSP1(=O)OC[C@H]2O[C@@H](n3cnc4c(N)ncnc43)[C@H](F)[C@@H]2OCP(=O)(O)OC[C@H]2O[C@@H](n3cnc4c(=O)[nH]cnc43)[C@H](O1)[C@@H]2F", "note": "(single isomer, unassigned) [Compound 56b]", "values": [{"measurement": "EC50", "result": 30, "unit": "nM"}]}
{"smiles": "CCCCCCCCCCCC(=O)OCSP1(=O)OC[C@H]2O[C@@H](n3cnc4c(N)ncnc43)[C@H](F)[C@@H]2OCP(=O)(O)OC[C@H]2O[C@@H](n3cnc4c(=O)[nH]c(N)nc43)[C@H](O1)[C@@H]2F", "note": "(single isomer, unassigned) [Compound 57a]", "values": [{"measurement": "EC50", "result": 30, "unit": "nM"}]}
{"smiles": "CCCCCCCCCCCCCCCC(=O)OCSP1(=O)OC[C@H]2O[C@@H](n3cnc4c(N)ncnc43)[C@H](F)[C@@H]2OCP(=O)(O)OC[C@H]2O[C@@H](n3cnc4c(=O)[nH]cnc43)[C@H](O1)[C@@H]2F", "note": "(single isomer, unassigned) [Compound 64a]", "values": [{"measurement": "EC50", "result": 7, "unit": "nM"}]}
{"smiles": "CCCCCCCCCCCCCCCC(=O)OCSP1(=O)OC[C@H]2O[C@@H](n3cnc4c(N)ncnc43)[C@H](F)[C@@H]2OCP(=O)(O)OC[C@H]2O[C@@H](n3cnc4c(=O)[nH]cnc43)[C@H](O1)[C@@H]2F", "note": "(single isomer, unassigned) [Compound 64b]", "values": [{"measurement": "EC50", "result": 10, "unit": "nM"}]}
{"smiles": "CCCCCCCCCCCCCC(=O)OCSP1(=O)OC[C@H]2O[C@@H](n3cnc4c(N)ncnc43)[C@H](F)[C@@H]2OCP(=O)(O)OC[C@H]2O[C@@H](n3cnc4c(=O)[nH]cnc43)[C@H](O1)[C@@H]2F", "note": "(single isomer, unassigned) [Compound 68a]", "values": [{"measurement": "EC50", "result": 10, "unit": "nM"}]}
{"smiles": "CCCCCCCCCCCCCC(=O)OCSP1(=O)OC[C@H]2O[C@@H](n3cnc4c(N)ncnc43)[C@H](F)[C@@H]2OCP(=O)(O)OC[C@H]2O[C@@H](n3cnc4c(=O)[nH]cnc43)[C@H](O1)[C@@H]2F", "note": "(single isomer, unassigned) [Compound 68b]", "values": [{"measurement": "EC50", "result": 50, "unit": "nM"}]}
{"smiles": "CCCCCCCCCC(=O)OCSP1(=O)OC[C@H]2O[C@@H](n3cnc4c(N)ncnc43)[C@H](F)[C@@H]2OCP(=O)(O)OC[C@H]2O[C@@H](n3cnc4c(=O)[nH]cnc43)[C@H](O1)[C@@H]2F", "note": "(single isomer, unassigned) [Compound 75a]", "values": [{"measurement": "EC50", "result": 200, "unit": "nM"}]}
{"smiles": "CCCCCCCCCC(=O)OCSP1(=O)OC[C@H]2O[C@@H](n3cnc4c(N)ncnc43)[C@H](F)[C@@H]2OCP(=O)(O)OC[C@H]2O[C@@H](n3cnc4c(=O)[nH]cnc43)[C@H](O1)[C@@H]2F", "note": "(single isomer, unassigned) [Compound 75b]", "values": [{"measurement": "EC50", "result": 100, "unit": "nM"}]}
